AlphaSeq binding of Ab-14 light chain variants to a spike HR2 peptide

Target: peptide PDVDLGDISGINAS, taken from heptad repeat 2 (HR2) of SARS-CoV-2 spike.

Each scFv is VH, a (GGGGS)3 linker, VL, as in the parent Ab-14, and differs from it in the CDRs of the light chain only.
VH: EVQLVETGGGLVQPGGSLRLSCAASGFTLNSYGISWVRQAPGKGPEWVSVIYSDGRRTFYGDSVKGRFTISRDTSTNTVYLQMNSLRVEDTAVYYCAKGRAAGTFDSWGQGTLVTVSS
VL: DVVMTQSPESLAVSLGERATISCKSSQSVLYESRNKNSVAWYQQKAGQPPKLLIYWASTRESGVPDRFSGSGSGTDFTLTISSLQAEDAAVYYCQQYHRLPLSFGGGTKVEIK

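The starting antibody came from a phage panning campaign against this peptide. The variants were designed computationally from a first round of random CDR variants and then made and measured. Several design methods are mixed in this list. Affinity was read by AlphaSeq, a pooled yeast mating assay with surface-displayed partners. Mating (16 h, 30 °C) was followed by selection of diploids and sequencing of their barcodes. Scores were corrected for input abundance and mapped to Kd with protein pairs of known affinity run in the same pool. There are six technical replicates.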

Variants are written as CDR1, CDR2 and CDR3 of the light chain (limits as in the source). Parent: KSSQSVLYESRNKNSVA, WASTRES, QQYHRLPLS.
The read-out is the apparent dissociation constant on a log10 scale (nM): the lower, the stronger.
Averages over replicates are reported, and they cover detected replicates only.
"nd" means that the variant was in the library but no mating with the target was seen in any replicate; the authors take this as a sign of poor binding, and no number exists.
The authors averaged sequences with at least three values out of six and counted those with two or fewer as poor binders.
Nonspecific signal, from three strains lacking the peptide, appeared in 4% of pairings of all light chain designs, centred on 2.64 (5% of these signals below 1.59); values are not corrected for it. Also given: how often the same scFv was detected with the empty control strains.
Values of this round are not directly comparable with the first-round values of the same sequences.

KIGATLNQLMHKKNNVA / DLVTREN / QQYGRLPLS: 0.61 (6 of 6 replicates; controls 2 of 18).
MIKEENIGVGNYQNSIA / DGASTMA / QQYYRLPLA: 0.30 (6 of 6 replicates; controls 3 of 18).
KSSQSVLYESRNKNSVA / WAQTRES / QQYHGYPLS: 2.40 (2 of 6 replicates; controls 0 of 18).
NVDISQNVNYNHKAAVA / GHDERVG / QQYSRLPLS: 0.80 (6 of 6 replicates; controls 0 of 18).
KSSQSVLPESRNKNSVA / QASTPES / QQYMRLPLS: 0.41 (6 of 6 replicates; controls 0 of 18).
KSSQSVLGESRQKNSVA / HASTRES / FQYHRLPLS: 2.21 (2 of 6 replicates; controls 1 of 18).
KLSQSFMYEERNPNSVA / NASKREE / QQYHRLPLS: 0.07 (6 of 6 replicates; controls 3 of 18).
KSSHSVLYESRNKNSVA / GASTRES / QQYHRLPLS: 1.21 (6 of 6 replicates; controls 0 of 18).
KLSQSVEYESRNKNSVA / HASTRCS / QQYHRLPLS: 0.26 (6 of 6 replicates; controls 2 of 18).
KVSQSVLYESRNKNSVA / NASQRLS / QQYHRLPLS: 0.60 (6 of 6 replicates; controls 1 of 18).
KCSQSVLYEHRNQNSVA / WASTRES / QDYHYFPLS: nd (0 of 6 replicates; controls 3 of 18).
MISQLYNMGQFAINSVA / QAQTRNE / QQYDRLPLT: 2.44 (6 of 6 replicates; controls 0 of 18).
KLSQSHLYESRNWNSVA / NASTRES / QQYHRLPLS: 0.48 (6 of 6 replicates; controls 0 of 18).
KFSQMSNSMSVSHSAVA / EMSTRPD / QQYNRLPLA: 0.37 (6 of 6 replicates; controls 1 of 18).
AASQGWLYESRNKNSVA / GASTRED / QQYHRLPLS: nd (0 of 6 replicates; controls 1 of 18).
KMSQLVLYDSRNKNSVA / AASTRES / QQYHRLPLS: -0.07 (6 of 6 replicates; controls 0 of 18).
MISQLYNMGQFAINSVA / QASERCN / QQYDRLPLI: 1.18 (6 of 6 replicates; controls 0 of 18).
KLPQSMLYESRNKNSVA / SASTRES / QQYHRLPLS: -0.47 (6 of 6 replicates; controls 1 of 18).
KVSISYLLESRNKNSVA / EATTRES / QQYHRLPLS: 0.91 (6 of 6 replicates; controls 0 of 18).
KISTQIPEFEMDDNAIA / MATLRET / QQYQRLPLS: 1.35 (6 of 6 replicates; controls 3 of 18).
KSSWSWLYESGNKNSVA / HASTRED / QQYHRLPLS: 0.28 (6 of 6 replicates; controls 1 of 18).
KLSQSVLEESDMKNNVA / WAKTREM / QQYHRLPLS: 1.88 (6 of 6 replicates; controls 1 of 18).
KYSQNVLYESRNKNSVA / WASTRES / QQYHRLPLS: 2.02 (6 of 6 replicates; controls 0 of 18).
KLYDMAAVTMQNIRNVA / DNSTREA / QQYHRLPLS: 0.89 (6 of 6 replicates; controls 2 of 18).
HIQEVDNQVENKYGNVA / DASEYVA / QQYFQLPIS: 1.75 (6 of 6 replicates; controls 1 of 18).
KSSISMLYESRNTNSVA / EASTRES / QQYHRLPLS: 0.00 (6 of 6 replicates; controls 0 of 18).
ESSQSRLMESRNKNSVA / HAQTRES / QQYHRLPWN: 1.88 (3 of 6 replicates; controls 0 of 18).
KLQQSVLYESRNKNNVA / HASTRED / QQYHRLPLS: 0.17 (6 of 6 replicates; controls 0 of 18).
MIGKGLMGESRAKNSIA / QASLRED / QQYHRLPLI: 0.27 (6 of 6 replicates; controls 0 of 18).
KLHQSDGYESRNKNSVA / NASTRSH / QQYHRLPLS: -0.12 (6 of 6 replicates; controls 0 of 18).
KSSQSVLYENRNKNSVA / DASTRES / QQYHRLPLS: -0.03 (6 of 6 replicates; controls 0 of 18).
KSSQSWLYESRNKNSVA / GFSTVEF / QQQHRLPLS: 3.17 (3 of 6 replicates; controls 2 of 18).
KISQAANYLSRVMNSVA / DNSTRGS / QQYFRLPLS: 0.54 (6 of 6 replicates; controls 0 of 18).
HLGGLMTWESKNRNSVA / QQETRAE / QQYHHLPLS: 0.38 (6 of 6 replicates; controls 1 of 18).
KSGQSVLLESRNKNSVA / GASIRFS / QQYHRLPLS: 0.98 (6 of 6 replicates; controls 0 of 18).
KLSCSVLYEQRNKNSMA / WASTRES / QQYHRLPLS: 2.75 (1 of 6 replicates; controls 0 of 18).
KYSQSVLGESRYKNSVA / WASTRES / QQYRRLPLS: 2.39 (3 of 6 replicates; controls 1 of 18).
KLSQSVLYESRNKNSVA / NASTRMQ / QDYHRLPLS: -0.14 (6 of 6 replicates; controls 1 of 18).

Excerpt, the first 6 entries:

| CDR-L1 | CDR-L2 | CDR-L3 | mean, log10 nM | replicates with signal | empty controls |
|---|---|---|---|---|---|
| KIGATLNQLMHKKNNVA | DLVTREN | QQYGRLPLS | 0.61 | 6 of 6 | 2 of 18 |
| MIKEENIGVGNYQNSIA | DGASTMA | QQYYRLPLA | 0.30 | 6 of 6 | 3 of 18 |
| KSSQSVLYESRNKNSVA | WAQTRES | QQYHGYPLS | 2.40 | 2 of 6 | 0 of 18 |
| NVDISQNVNYNHKAAVA | GHDERVG | QQYSRLPLS | 0.80 | 6 of 6 | 0 of 18 |
| KSSQSVLPESRNKNSVA | QASTPES | QQYMRLPLS | 0.41 | 6 of 6 | 0 of 18 |
| KSSQSVLGESRQKNSVA | HASTRES | FQYHRLPLS | 2.21 | 2 of 6 | 1 of 18 |

Values reported by Li et al. 2023, doi:10.1038/s41467-023-39022-2 (FLAb copy).